Results on one compound are retold here after ChEMBL document CHEMBL1128411, “Conformationally defined 6-s-trans-retinoic acid analogs. 2. Selective agonists for nuclear receptor binding and transcriptional activity” (J Med Chem, 1995).

By UniProt entry, the sequences of proteins in these tests, tags left out.
UniProt P62965, whole entry: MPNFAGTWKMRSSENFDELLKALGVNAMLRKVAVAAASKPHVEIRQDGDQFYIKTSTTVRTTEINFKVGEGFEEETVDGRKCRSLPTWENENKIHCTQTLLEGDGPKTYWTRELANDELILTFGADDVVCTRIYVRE

The assay has as its target Cellular retinoic acid-binding protein 1 (Mus musculus, UniProt P62965). The assay can be described thus: Binding affinity for mouse Cytoplasmic retinoic acid binding protein type 1. The gist of the method:
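Equilibrium fluorometric titration at 25 °C of recombinant E. coli-expressed apo-proteins (mCRABP-I, mCRABP-II, or hRXRα DEF ligand-binding domain). Ligands came from ethanol stocks, with concentrations set by UV/vis in hexane. Tryptophan fluorescence quenching was read and corrected for inner filter effects. A survey was run at 10^-6 M protein to check stoichiometry.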

pKd: −log10 of the molar value.

Broadly, the pKd is the Kd on a negative log10 scale, so that one unit is a factor of ten. Read a low pKd as a high Kd. `CC1=C(/C=C/C(C)=C/C=C/C(C)=C\C(=O)O)C(C)(C)CCC1` [ISOTRETINOIN] showed a pKd below 6.70.
